Reference: ChEMBL document CHEMBL1145111, “Synthesis and biological characterization of 1-methyl-1,2,5,6-tetrahydropyridyl-1,2,5-thiadiazole derivatives as muscarinic agonists for the treatment of neurological disorders” (J Med Chem, 2003)

Amino acid sequences for entries named in this document (tags omitted).
UniProt P08172, whole entry: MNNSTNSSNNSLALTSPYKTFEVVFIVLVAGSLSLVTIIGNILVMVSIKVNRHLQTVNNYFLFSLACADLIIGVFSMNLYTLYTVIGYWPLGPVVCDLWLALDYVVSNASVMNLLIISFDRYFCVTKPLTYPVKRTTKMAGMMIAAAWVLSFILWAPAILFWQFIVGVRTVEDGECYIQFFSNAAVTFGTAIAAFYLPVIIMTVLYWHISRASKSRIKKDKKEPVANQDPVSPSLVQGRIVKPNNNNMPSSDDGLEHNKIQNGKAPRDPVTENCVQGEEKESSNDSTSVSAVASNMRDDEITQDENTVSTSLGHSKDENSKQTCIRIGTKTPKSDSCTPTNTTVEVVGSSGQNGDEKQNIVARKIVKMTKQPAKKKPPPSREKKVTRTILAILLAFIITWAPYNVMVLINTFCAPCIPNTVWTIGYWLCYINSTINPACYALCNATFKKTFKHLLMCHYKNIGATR

Key:
[1] = biological target: T1, Muscarinic acetylcholine receptor M2 (Homo sapiens, UniProt P08172); test: Inhibitory activity was evaluated against Muscarinic acetylcholine receptor M2 expressed in A9 L cells; type: cell-based, A9L
[2] = biological target: T1, Muscarinic acetylcholine receptor M2; test: Compound was tested for binding inhibition of [3H](R)-QNB to Muscarinic acetylcholine receptor M2 expressed in A9 L cells; type: cell-based, A9L
In short: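 Membrane homogenates from transfected A9 L cells expressing the human subtype were incubated with 0.1 nM [³H]-(R)-QNB. Buffer was 25 mM sodium phosphate, pH 7.4, with 5 mM MgCl2. Test ligand covered 14 points from 0.01 nM to 3 mM, 2 h at room temperature. Nonspecific binding was taken with 1000-fold excess unlabeled (R)-QNB. Results are given as pKi, mean ± SEM, in triplicate.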

CCCCCCOc1nsnc1C1=CCCN(C)C1 [XANOMELINE]
IC50 [1]: 12.6 nM | Ki [2]: 50.1 nM
